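Grown in 96-well plates, cells were treated for 48 hours with each compound at five concentrations. Insufficient inhibition: endpoint recorded as highest concentration tested. TGI is the concentration that stops growth completely.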
Key:
Test in all cases: growth of human tumour cells (NCI), 48 h
SF-539 CNS = test system: SF-539 CNS
NCI/ADR-RES ovarian = test system: NCI/ADR-RES ovarian
OVCAR-5 ovarian = test system: OVCAR-5 ovarian
BT-549 breast = test system: BT-549 breast
CCRF-CEM leukemia = test system: CCRF-CEM leukemia
NCI-H460 lung = test system: NCI-H460 lung
OVCAR-3 ovarian = test system: OVCAR-3 ovarian
A549 NSCLC = test system: A549 NSCLC
SR leukemia = test system: SR leukemia
MCF7 breast = test system: MCF7 breast
UO-31 renal = test system: UO-31 renal
MOLT-4 leukemia = test system: MOLT-4 leukemia
RPMI-8226 leukemia = test system: RPMI-8226 leukemia
K-562 leukemia = test system: K-562 leukemia
IGROV1 ovarian = test system: IGROV1 ovarian
SNB-75 CNS = test system: SNB-75 CNS
HS 578T breast = test system: HS 578T breast
NCI-H226 lung = test system: NCI-H226 lung
HL-60(TB) leukemia = test system: HL-60(TB) leukemia
SNB-19 CNS = test system: SNB-19 CNS
U251 CNS = test system: U251 CNS
SF-268 CNS = test system: SF-268 CNS
OVCAR-8 ovarian = test system: OVCAR-8 ovarian
SN12C renal = test system: SN12C renal
NCI-H23 lung = test system: NCI-H23 lung
SW-620 colon = test system: SW-620 colon
SF-295 CNS = test system: SF-295 CNS
SK-MEL-28 melanoma = test system: SK-MEL-28 melanoma
LOX IMVI melanoma = test system: LOX IMVI melanoma
HCT-15 colon = test system: HCT-15 colon
COLO 205 colon = test system: COLO 205 colon
TK-10 renal = test system: TK-10 renal
MDA-MB-435 = test system: MDA-MB-435
HOP-62 NSCLC = test system: HOP-62 NSCLC
SK-OV-3 ovarian = test system: SK-OV-3 ovarian
ACHN renal = test system: ACHN renal
HT29 colon = test system: HT29 colon
DU-145 prostate = test system: DU-145 prostate
MDA-N = test system: MDA-N
KM12 colon = test system: KM12 colon
HCT-116 colon = test system: HCT-116 colon
SK-MEL-5 melanoma = test system: SK-MEL-5 melanoma
MDA-MB-231 breast = test system: MDA-MB-231 breast
OVCAR-4 ovarian = test system: OVCAR-4 ovarian
786-0 renal = test system: 786-0 renal
MALME-3M melanoma = test system: MALME-3M melanoma
PC-3 prostate = test system: PC-3 prostate
UACC-62 melanoma = test system: UACC-62 melanoma

Measured: TGI

CCOP1(=O)N=C(NC#N)N(C)C1(C)C (stereo not drawn)
> 100 µM: all assays above
